This assay has as its target Amyloid-beta precursor protein (Rattus norvegicus) (UniProt P08592). Description: Inhibition of APP phosphorylation in amyloid beta (1 to 42 residues)-induced Sprague-Dawley rat primary cortical neurons by Western blot analysis. The format is cell-based. The settings on record: Primary cortical neuron. For orientation: In western blotting, separated proteins are transferred to a membrane and probed.

By UniProt entry, the sequences of proteins in these tests, tags left out.
UniProt P08592, whole entry: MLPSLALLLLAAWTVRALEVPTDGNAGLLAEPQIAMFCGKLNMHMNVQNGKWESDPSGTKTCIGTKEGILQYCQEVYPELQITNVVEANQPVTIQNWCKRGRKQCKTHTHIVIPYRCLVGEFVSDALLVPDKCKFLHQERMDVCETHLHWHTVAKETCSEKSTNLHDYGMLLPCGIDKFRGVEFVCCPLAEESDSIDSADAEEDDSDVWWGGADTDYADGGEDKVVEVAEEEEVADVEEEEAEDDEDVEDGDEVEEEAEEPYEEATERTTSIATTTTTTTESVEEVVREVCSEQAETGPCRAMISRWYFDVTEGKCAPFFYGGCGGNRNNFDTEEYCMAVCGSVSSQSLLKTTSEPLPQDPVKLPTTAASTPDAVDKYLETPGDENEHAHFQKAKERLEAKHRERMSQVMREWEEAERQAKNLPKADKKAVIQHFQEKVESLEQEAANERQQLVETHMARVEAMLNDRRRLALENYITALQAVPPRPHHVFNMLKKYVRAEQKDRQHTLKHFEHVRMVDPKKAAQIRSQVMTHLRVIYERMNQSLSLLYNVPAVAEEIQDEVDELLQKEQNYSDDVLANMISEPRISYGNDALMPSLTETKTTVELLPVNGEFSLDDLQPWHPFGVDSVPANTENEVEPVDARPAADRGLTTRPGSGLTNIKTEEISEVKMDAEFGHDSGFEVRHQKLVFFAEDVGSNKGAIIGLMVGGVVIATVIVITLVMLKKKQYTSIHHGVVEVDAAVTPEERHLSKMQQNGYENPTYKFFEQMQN

Activity calls are given as the source filed them. The rule behind the calls is not given here.

This note sets out measurements from ChEMBL document CHEMBL6121018, “Targeting JNK3 for Alzheimer's disease: Design and synthesis of novel inhibitors with aryl group diversity utilizing wide pocket” (Eur J Med Chem, 2025).

With `CN(C)C(=O)N1CCC[C@H](Nc2nccc(-n3cc(/C=C/c4ccccc4)c(C(N)=O)n3)n2)C1`, the inhibition entry is “Active”.

Consider `NC(=O)c1nn(-c2ccnc(N[C@H]3CCCN(C(=O)C4CC4)C3)n2)cc1/C=C/c1ccccc1`, for which the inhibition result was “Active”.
